AlphaSeq binding of Ab-14 light chain variants to a spike HR2 peptide

Binding partner: SARS-CoV-2 spike HR2 peptide, sequence PDVDLGDISGINAS.

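Phage display of a naive human antibody library on the peptide gave the parent. Library AAYL50 holds single substitutions and randomly drawn double and triple substitutions in the CDRs. In AlphaSeq, yeast of one mating type display the scFv and yeast of the other type display the target. The frequency of each diploid, read from paired DNA barcodes, reflects how well the two displayed proteins bind. The ratio of observed to expected reads was calibrated, replicate by replicate, on BCL2-family standards whose Kd was known from biolayer interferometry. Mating was done three times.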

The variants keep the heavy chain, the linker and the frameworks of Ab-14 (scFv order VH, three GGGGS repeats, VL).
VH: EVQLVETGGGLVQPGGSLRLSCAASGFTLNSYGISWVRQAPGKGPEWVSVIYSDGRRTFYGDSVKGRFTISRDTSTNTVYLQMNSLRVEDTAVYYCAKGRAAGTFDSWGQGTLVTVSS
VL: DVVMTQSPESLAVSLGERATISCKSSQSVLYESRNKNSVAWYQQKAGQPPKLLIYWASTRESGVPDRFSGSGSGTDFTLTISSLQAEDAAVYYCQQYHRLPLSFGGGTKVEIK

The parent's light chain CDRs are KSSQSVLYESRNKNSVA, WASTRES, QQYHRLPLS; each variant's own CDRs replace them letter for letter.
This list gathers variants with a substitution at A57 (VL, numbered from residue 1).
Kd is apparent (estimated from mating counts) and averaged on the log scale over replicates with a signal. Smaller is tighter.
"nd" means that the variant was in the library but no mating with the target was seen in any replicate; the authors take this as a sign of poor binding, and no number exists.
In this assay the parent's reference entry averaged 4.4 nM; its copy inside this library read 48 nM.
Three control strains display no target. For library AAYL50, 18% of the pairings with them gave a signal, with a median of 15 µM and one signal in twenty below 970 nM, so weak values seen in few replicates may be background.

For KTSQSVLYESRNKASVA | WNSTRES | QQYHRLPLS, the assay gave 430 nM (3 of 3 replicates).
For KSSQSVLYESRNKNSVA | WPWTREP | QQYHRLPLS, the assay gave 8.0 µM (3 of 3 replicates).
For KSSQSVLYESRNKNSVA | WFSTREI | QQYHRLNLS, the assay gave nd (0 of 3 replicates).
For KSSQSVLYESRNKNSVY | WVSRRES | QQYHRLPLS, the assay gave 64 µM (2 of 3 replicates).
For KSSQSVLYERRNKNSVA | EYSTRES | QQYHRLPLS, the assay gave 330 nM (3 of 3 replicates).
For KWSQSVLYESRNKNSVA | WESTREL | QQYHRLPLS, the assay gave 29 nM (1 of 3 replicates).
For KSSQSVLYESRGKNSVA | WYSTRES | QQYHRLPLV, the assay gave 20 µM (1 of 3 replicates).
For KSSQSVLYESRNVNTVA | WCSTRES | QQYHRLPLS, the assay gave 21 µM (2 of 3 replicates).
For KSSQSVLYESRNKNSVA | WLDKRES | QQYHRLPLS, the assay gave 50 nM (3 of 3 replicates).
For KSSQSVLYETRNKNSVA | WKSWRES | QQYHRLPLS, the assay gave 130 nM (3 of 3 replicates).
For KSSQSVLYESRNKNNVA | RFSTRES | QQYHRLPLS, the assay gave 510 nM (3 of 3 replicates).
For KSSQSVLYESRNKNSCA | ESSTRES | QQYHRLPLS, the assay gave 2.4 nM (3 of 3 replicates).
For KSSQSVLYEGRNKNSVA | WYSTRES | TQYHRLPLS, the assay gave nd (0 of 3 replicates).
For KSSQSVLYESRNKNSVA | WLSTRES | QQYDRLPLS, the assay gave 140 µM (1 of 3 replicates).
For KSSQSVLYESRKKNSVA | WISTPES | QQYHRLPLS, the assay gave 4.7 µM (1 of 3 replicates).
For KSSQSVLYESRNKMSVA | WPSTRES | QQTHRLPLS, the assay gave 78 µM (1 of 3 replicates).
For KSSQSVLYESRNKNSVA | WTSLRES | TQYHRLPLS, the assay gave 140 µM (1 of 3 replicates).
For KSSQSVLYESRNCNSPA | WMSTRES | QQYHRLPLS, the assay gave nd (0 of 3 replicates).
For KSQQSVLYESRNKNSVA | WYSTRES | QQYCRLPLS, the assay gave nd (0 of 3 replicates).
For KSSQPVRYESRNKNSVA | WNSTRES | QQYHRLPLS, the assay gave 5.7 µM (1 of 3 replicates).
For KSSNSVLYESRNKNSVA | WTSTRES | QHYHRLPLS, the assay gave 39 nM (3 of 3 replicates).
For KSSQSVPYESRNKNSVA | WLSTRES | QQYHRLPWS, the assay gave nd (0 of 3 replicates).
For QSSQSVLYESRLKNSVA | WVSTRES | QQYHRLPLS, the assay gave 730 nM (3 of 3 replicates).
For KSSQSVLYESRNKNSVA | WKSTVES | QVYHRLPLS, the assay gave 340 µM (2 of 3 replicates).
For KSSQSVLYESRNKNSVA | WMSTRES | QCYHRLPDS, the assay gave 24 µM (2 of 3 replicates).
For KSSQSVLYESRNKNSVA | WWSTRES | QQYHRLPLS, the assay gave nd (0 of 3 replicates).
For KSSQVVLYESWNKNSVA | WTSTRES | QQYHRLPLS, the assay gave 380 nM (3 of 3 replicates).
For KSYQSVLYESRNKNSPA | WRSTRES | QQYHRLPLS, the assay gave 30 µM (1 of 3 replicates).
For KSSFSVLYESRNKNSVA | WSSTREM | QQYHRLPLS, the assay gave 57 nM (3 of 3 replicates).
For KSSQSVLYESRPKNSVA | WKSTRES | QQYHREPLS, the assay gave 220 µM (1 of 3 replicates).
For CSSQSVLYESRNKNSVA | WRSTRET | QQYHRLPLS, the assay gave nd (0 of 3 replicates).
For KSSQSVLYESRNINSVA | WDSTRES | QQYHRLPLC, the assay gave 1.5 µM (1 of 3 replicates).
For KSSQSVLYESRNKNSVA | FNSTRES | QQYHRLPES, the assay gave 23 µM (1 of 3 replicates).
For KSSQSVTYESRNKNSVA | WISTRES | QQYHRLPCS, the assay gave 260 nM (1 of 3 replicates).
For KSSQSVLYESRNHNSVA | WESTRES | QQYPRLPLS, the assay gave 120 µM (2 of 3 replicates).
For KSSQRVLYESRNKNSVA | WRSTRES | QQYHRLPGS, the assay gave 2.2 µM (1 of 3 replicates).
For KSEQSVLYESRNKNSVA | WFSTRES | QQYHRDPLS, the assay gave nd (0 of 3 replicates).
For KSSQSVLYESRNKNSVA | WSSTRES | QQYRKLPLS, the assay gave 590 nM (3 of 3 replicates).
For KSSQSVHYESRNKNSVA | WRSTRES | QQYHRLPWS, the assay gave nd (0 of 3 replicates).
For TSSQSVLYESRNKNSVA | WPSTRES | QQYHLLPLS, the assay gave nd (0 of 3 replicates).
For KSSQSVLYWSRNKNSVA | WDSTRES | QQYHRLPLV, the assay gave 29 µM (1 of 3 replicates).
For KSKQSDLYESRNKNSVA | WPSTRES | QQYHRLPLS, the assay gave 52 µM (1 of 3 replicates).
For KSSQSVDYESRNKNSVA | YSSTRES | QQYHRLPLS, the assay gave 4.5 nM (3 of 3 replicates).
For KSSQSVLYESRNKNSVA | WRSTRES | QQYHFLPLS, the assay gave 9.9 µM (1 of 3 replicates).

Excerpt, the first 3 entries:

CDR-L1	CDR-L2	CDR-L3	Kd	replicates with signal
KTSQSVLYESRNKASVA	WNSTRES	QQYHRLPLS	430 nM	3 of 3
KSSQSVLYESRNKNSVA	WPWTREP	QQYHRLPLS	8.0 µM	3 of 3
KSSQSVLYESRNKNSVA	WFSTREI	QQYHRLNLS	nd	0 of 3

Data: MIT Lincoln Laboratory AlphaSeq set, Engelhart et al. 2022, doi:10.1038/s41597-022-01779-4, as distributed in FLAb.